Source: PubChem BioAssay AID540263 (National Center for Advancing Translational Sciences (NCATS), 2011)
The list shows a part of the results. Inconclusive results are not listed. The source made the active and inactive calls. The call rests on the fitted dose curve.

Chains of the proteins cited; added tags and fusions are not shown.
UniProt Q14974, whole entry: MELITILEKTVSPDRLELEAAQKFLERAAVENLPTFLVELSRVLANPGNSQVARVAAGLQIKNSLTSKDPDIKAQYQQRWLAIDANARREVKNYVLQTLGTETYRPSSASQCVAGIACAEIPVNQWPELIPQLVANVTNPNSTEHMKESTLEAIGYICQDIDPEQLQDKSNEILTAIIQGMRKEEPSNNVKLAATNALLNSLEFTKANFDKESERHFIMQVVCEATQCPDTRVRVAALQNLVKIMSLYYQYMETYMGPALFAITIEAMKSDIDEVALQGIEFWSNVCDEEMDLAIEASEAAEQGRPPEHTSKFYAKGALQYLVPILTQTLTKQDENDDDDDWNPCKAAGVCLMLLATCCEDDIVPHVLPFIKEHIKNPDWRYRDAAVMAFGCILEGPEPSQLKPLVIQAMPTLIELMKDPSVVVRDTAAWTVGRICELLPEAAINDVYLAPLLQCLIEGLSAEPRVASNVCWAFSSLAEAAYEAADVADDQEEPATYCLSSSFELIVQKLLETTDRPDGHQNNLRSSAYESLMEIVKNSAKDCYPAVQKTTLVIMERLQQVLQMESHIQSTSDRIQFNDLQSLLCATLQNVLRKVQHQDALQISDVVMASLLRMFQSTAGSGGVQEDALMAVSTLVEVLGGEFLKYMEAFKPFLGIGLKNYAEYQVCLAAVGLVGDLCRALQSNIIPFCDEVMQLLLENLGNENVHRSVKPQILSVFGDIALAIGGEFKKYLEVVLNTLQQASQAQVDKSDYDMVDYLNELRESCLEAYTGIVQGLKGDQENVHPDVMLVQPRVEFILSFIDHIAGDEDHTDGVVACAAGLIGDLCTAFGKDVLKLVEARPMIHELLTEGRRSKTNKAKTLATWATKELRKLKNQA
UniProt O95149, whole entry partner: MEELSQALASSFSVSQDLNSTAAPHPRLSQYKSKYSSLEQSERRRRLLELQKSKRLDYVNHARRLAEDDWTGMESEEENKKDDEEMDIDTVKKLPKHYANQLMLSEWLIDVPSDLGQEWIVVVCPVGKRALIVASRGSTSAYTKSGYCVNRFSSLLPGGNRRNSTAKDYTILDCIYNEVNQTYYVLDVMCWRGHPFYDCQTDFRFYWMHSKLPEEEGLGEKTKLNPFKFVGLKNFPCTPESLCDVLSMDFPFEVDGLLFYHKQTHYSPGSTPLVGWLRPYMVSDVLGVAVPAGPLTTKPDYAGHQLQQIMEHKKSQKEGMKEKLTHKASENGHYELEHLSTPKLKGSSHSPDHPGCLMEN

target: Importin subunit beta-1 (Homo sapiens) (UniProt Q14974); experiment: qHTS Assay for Inhibitors of Rango (Ran-regulated importin-beta cargo) - Importin beta complex formation; details: Rango CFP/YFP FRET sensor + importin beta, 45 min; at 92.2 µM (top of the series);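 further: 0% = DMSO wells and 100% = buffer wells lacking importin beta; nearly all actives have a fitted effect of over 15% in size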
From the text: NIH Molecular Libraries Probe Production Centers Network [MLPCN] NIH Chemical Genomics Center [NCGC] MLPCN Grant: R03 MH090808-01A1 Assay Submitter (PI): Petr Kalab NCGC Assay Overview: The small GTPase Ran regulates transport of macromolecules between the nucleus and the cytoplasm (nuclear transport) and has important functions in mitotic spindle assembly, nuclear envelope (NE) formation and nuclear pore complex (NPC) assembly. RanGTP gradient is thought to promote spindle assembly by providing a spatial clue to microtubule nucleation and Aurora A activation. Because the localized release and binding of importin alpha cargo relays this spatial clue to SAFs, inhibitors of the Rango - importin beta complex can then be used in further understanding their role in cell cycle specifically in mitosis progression. […] Activation of Aurora A has been linked to different types of cancer and a number of Aurora kinase inhibitors are being developed as potential canter therapeutics therefore, identified inhibitors of this complex could be developed into potential anti-mitotic probes for cancer treatment. Purified recombinant proteins Rango and importin beta were provided by the assay submitter. The assay used a fluorescence resonance energy transfer (FRET) Rango biosensor that contains the IBB of human snurportin 1 flanked by yellow fluorescent protein (EYFP) at the amino terminus and cerulean CFP10 at the carboxy terminus. […] Inhibitors will therefore be identified based on the ability to interfere with the FRET signal decrease. DMSO treated and no importin beta (buffer only) wells were used as negative and positive controls respectively. FRET readings were obtained at two time points. FRET reading prior to importin beta addition (pre-read) were used flag potential compound interference; FRET reading after importin beta addition (post-read) were used to identify inhibitors using the FRET ratio parameter.
NCGC Assay Protocol Summary: Two and a half uL/well of Rango-buffer solution (50 nM Rango, 1x PBS, 1mM DTT, 0.02% Tween-20, 0.1% BSA final concentrations) was dispensed into 1536-well assay plates (Greiner, solid black medium-binding plates) with Aurora Discovery BioRAPTR Flying Reagent Dispenser (FRD; Beckton-Dickenson). Compound solution (23 nL) was transferred to the assay plate using Kalypsys pin tool equipped with a 1536-pin tool and incubated at room temperature for 5 min followed by a FRET pre-read using the PerkinElmer Envision plate reader. Two and a half uL/well of Importin beta - buffer solution (0.125 microM importin beta, 1x PBS, 1mM DTT, 0.02% Tween-20, 0.1% BSA final concentrations) were then added and incubated at room temperature giving a final reaction volume of 5uL. After 45min FRET post-read was obtained via the Envision plate reader using the same optics and settings as the pre-read (CFP/YFP optimized dual optical module D450/D505; excitation mirror CFP 430/24 nm; and emission filters CFP 486/10 nm and YFP 530/10 nm).

Compound | inhibition of complex formation
O=P(Nc1nccs1)(Oc1ccccc1)Oc1ccccc1 | inactive: -4.72%
O=P(Nc1nccs1)(c1ccccc1)c1nc2ccccc2s1 (centres undefined) | inactive: -0.422%
O=C(O)COc1ccc([As](=O)(O)O)cc1[N+](=O)[O-] | inactive: 4.88%
Nc1ccccc1[As](=O)(O)c1ccccc1 | inactive: -1.39%
COc1ccccc1OP(C)(=O)Nc1ccc(C)cc1 (centres undefined) | inactive: -0.803%
COC(=O)C1(C)COP(=O)(N2CCCCCC2)OC1 (centres undefined) | inactive: -0.253%
CC(C)c1ccc(OP(=O)(Nc2ccccn2)Oc2ccccc2F)cc1 (centres undefined) | inactive: 5.75%
Cc1ccc(NP(C)(=O)Oc2ccccc2)c(C)c1 (centres undefined) | inactive: 0.724%
CCOC(=O)c1ccc(NP(C)(=O)Oc2ccccc2)cc1 (centres undefined) | inactive: -4.42%
ClCCSc1nnc(-c2cccnc2)o1 | inactive: 4.6%
Cc1cc(C)cc(OP(C)(N)=O)c1 (centres undefined) | inactive: -1.03%
CC(C)NC(=O)NP(=O)(Oc1ccccc1)Oc1ccccc1 | inactive: 5.87%
COc1ccccc1OP(C)(=O)Nc1cc(Cl)ccc1C (centres undefined) | inactive: -0.731%
O=C(OC1CN2CCC1CC2)c1cccc2[nH]cnc12 (centres undefined) | inactive: 1.86%
CCN(CC)C(=S)SC(NC=O)C(Cl)(Cl)Cl (centres undefined) | inactive: -0.768%
COc1ccc(OP(C)(=O)Nc2cccc(F)c2)cc1 (centres undefined) | inactive: -0.407%
O=[N+]([O-])c1cc([N+](=O)[O-])c(-c2ccn[nH]2)s1 | inactive: 0.819%
C[As](=O)(O)c1cccc(C(=O)O)c1 | inactive: -0.331%
O=[As](O)(c1ccc(O)cc1)c1ccccc1O | inactive: -1.29%
O=[N+]([O-])c1ccc(-c2cc([N+](=O)[O-])c(O)c([N+](=O)[O-])c2)cc1 | inactive: 5.12%
COc1cc(C(=O)NCC2(N3CCOCC3)CCCCC2)ccc1OCC(C)C | inactive: 1.66%
O=[N+]([O-])c1cc([N+](=O)[O-])c(Nc2cccnc2)c([N+](=O)[O-])c1 | inactive: -2.59%
O=[N+]([O-])c1ccc2c(c1)C=Nc1ccccc1O2 | inactive: 2.48%
Cc1ccc2nc3c(c(C)c2c1)CC(C(Cl)Cl)S3 (centres undefined) | inactive: 0.426%
Cc1ccc(OP(=O)(Nc2ccc([N+](=O)[O-])cn2)Oc2ccc(C)cc2)cc1 | inactive: -2.24%

Compound | inhibition of complex formation
CC(C)(C)c1ccc(OP(C)(=O)Nc2ccc(SC(F)(F)F)cc2)cc1 (centres undefined) | inactive: -0.0351%
Cc1cccc(C)c1OP(C)(N)=O (centres undefined) | inactive: 1.36%
COc1ccc(N/C(=N/P(=O)(N2CCOCC2)N2CCOCC2)N2CCOCC2)cc1 | inactive: -1.06%
O=[N+]([O-])c1cc(Oc2ccc([N+](=O)[O-])cc2C(F)(F)F)cc([N+](=O)[O-])c1 | inactive: -3.13%
O=C(OC1CN2CCC1CC2)C12CC3CC(CC(C3)C1)C2 (centres undefined) | inactive: 0.518%
CCN(CC)CCCOC(=O)C(O)(c1ccccc1)c1ccccc1 | inactive: 0.212%
Cc1cc(=O)[nH]c(N[N+](=O)[O-])n1 | inactive: -0.654%
Cc1c2c(nc3ccccc13)SC(C(Cl)Cl)C2 (centres undefined) | inactive: 1.27%
COc1ccc2nc(NP(=O)(c3ccccc3)c3ccccc3)sc2c1 | inactive: -2.29%
COc1cc(I)ccc1[As](=O)(O)O | inactive: 4.13%
O=P1(N(CCCl)CCCl)OCCCN1CCCl (centres undefined) | inactive: 2.62%
O=P1(N(CCCl)CCCl)Nc2ccccc2N1 | inactive: 1.9%
O=[N+]([O-])c1cc([N+](=O)[O-])c(O)c([N+](=O)[O-])c1.c1ccc(Oc2ccncc2)cc1 | inactive: 6.68%
CCOC(=O)c1ccc(NP(C)(=O)Oc2ccc(OC)cc2)cc1 (centres undefined) | inactive: 1.68%
CCOP(C)(=S)SCC(=O)NC(C)C(=O)O (centres undefined) | inactive: 3.7%
O=C(OC1CN2CCC1CC2)c1cccc([N+](=O)[O-])c1 (centres undefined) | inactive: -0.844%
CP(=O)(Nc1ccccn1)Oc1ccc(Cl)cc1 (centres undefined) | inactive: -1.52%
CCC(C)N(CC(C)C)C(=S)SC(NC(C)=O)C(Cl)(Cl)Cl (centres undefined) | inactive: -0.579%
COP1(=S)c2c(C)nn(CCC#N)c2N=C(c2ccc(F)cc2)N1C (centres undefined) | inactive: 1.06%
CP(=O)(Nc1ccc(SC(F)(F)F)cc1)Oc1ccc(Cl)cc1 (centres undefined) | inactive: -3.7%
Cc1cccc(C)c1OP(C)(=O)Nc1ccc(SC(F)(F)F)cc1 (centres undefined) | inactive: -1.94%
CP(=O)(Oc1ccccc1)OC(c1ccccc1)C(F)(F)F (centres undefined) | inactive: 5.5%
CP(=O)(NC(=O)Nc1ccccc1)Oc1ccccc1 (centres undefined) | inactive: 2.2%
O=C(COc1ccccc1)OC1CN2CCC1CC2 (centres undefined) | inactive: 0.355%
CCc1ccc(OP(C)(=O)N2CCN(c3ccc([N+](=O)[O-])cc3)CC2)cc1 (centres undefined) | inactive: -3.08%

Compound | inhibition of complex formation
O=C(Nc1ccncc1[N+](=O)[O-])c1ccc([N+](=O)[O-])cc1[N+](=O)[O-] | inactive: -1.95%
Cc1cc(C)cc(OP(C)(=O)Nc2ccc(SC(F)(F)F)cc2)c1 (centres undefined) | inactive: 0.648%
CCOC(=O)Nc1cccc([As](=O)(O)O)c1 | inactive: -2.72%
CP(=S)(Nn1cnnc1)Oc1ccccc1 (centres undefined) | inactive: -2.98%
CP(=O)(Nc1ccccc1Br)Oc1ccccc1 (centres undefined) | inactive: 3.23%
O=[N+]([O-])c1ccc(Nc2ccc(Oc3ccc([N+](=O)[O-])cc3[N+](=O)[O-])cc2)c([N+](=O)[O-])c1 | inactive: 4.52%
Cc1cc(SC(NC=O)C(Cl)(Cl)Cl)ncn1 (centres undefined) | inactive: -0.0243%
O=P(Nc1ccccn1)(c1cccc2ccccc12)c1cccc2ccccc12 | inactive: -0.912%
COc1ccccc1OP(C)(=O)Nc1ccccc1 (centres undefined) | inactive: -0.296%
CC1CCNP(=O)(N(CCCl)CCCl)O1 (centres undefined) | inactive: 0.466%
CCOC(=O)Nc1ccc([As](=O)(O)O)c(O)c1 | inactive: -1.4%
CCCCOc1ccc(C(=O)NCC2(N3CCCCC3)CCCCC2)cc1OC | inactive: -8.44%
CC(C)(C)C(=O)NC(Sc1ccncn1)C(Cl)(Cl)Cl (centres undefined) | inactive: -0.942%
O=[N+]([O-])c1ncn(CCn2ncnc2[N+](=O)[O-])n1 | inactive: -1.9%
COC(=O)C1(C)COP(=O)(Nc2ccccc2)OC1 (centres undefined) | inactive: -1.03%
O=[N+]([O-])c1cccc(NC2=NCC(CBr)S2)c1 (centres undefined) | inactive: -3.75%
O=C(O)CNc1ccc([As](=O)(O)O)cc1 | inactive: 3.77%
Nc1ccc2c(ccc3cccnc32)n1.O=[N+]([O-])c1cc([N+](=O)[O-])c(O)c([N+](=O)[O-])c1 | inactive: 5.66%
O=P1(N(CCCl)CCCl)OCCCS1 (centres undefined) | inactive: -2.85%
CCOC(=O)c1ccc(NP(C)(=O)Oc2ccc(Cl)cc2)cc1 (centres undefined) | inactive: -3.37%
O=C(Nc1cc([As](=O)(O)O)ccc1O)c1ccccc1 | inactive: -0.237%
CP(=O)(OC12CC3CC(CC(C3)C1)C2)OC12CC3CC(CC(C3)C1)C2 | inactive: 3.02%
COc1ccccc1OP(C)(=O)Nc1ccccc1Br (centres undefined) | inactive: -0.084%
Nc1ccc([As](=O)(O)c2ccc(N)cc2)cc1 | inactive: -0.74%
CC(C)(C)c1ccc(OP(C)(=O)O)cc1 | inactive: -0.592%

Compound | inhibition of complex formation
C[N+]1=C2C=CC=CC=C2SC12C([N+](=O)[O-])=CC([N+](=O)[O-])=C[C-]2[N+](=O)[O-] (centres undefined) | inactive: -0.0211%
CCN(/C(=N/P(=O)(N1CCOCC1)N1CCOCC1)N1CCOCC1)c1ccc(OC)cc1 | inactive: -0.127%
CP(=O)(Nc1ccc(Cl)cc1)Oc1ccc(F)cc1 (centres undefined) | inactive: 0.597%
CC(C)=N/N=C(\N)N[N+](=O)[O-] | inactive: -2.11%
CN(C)C(=O)c1c([N+](=O)[O-])cc([N+](=O)[O-])cc1[N+](=O)[O-] | inactive: -0.0742%
CC1CCN(C(=O)Oc2c(Cl)cc(Cl)c3cccnc23)CC1 | inactive: -0.348%
COc1ccc(OP(C)(=O)Nc2ccc(Br)cc2)cc1 (centres undefined) | inactive: -0.668%
COc1ccc(C2=NCC(CBr)S2)cc1 (centres undefined) | inactive: 7.53%
O=[N+]([O-])c1cccc2n[nH]nc12 | inactive: -0.933%
COc1ccccc1OP(C)(=O)Nc1c(C)n(C)n(-c2ccccc2)c1=O (centres undefined) | inactive: 2.41%
O=C(OCCCN1CCCC1)C(O)(c1ccccc1)C1CCCCC1 (centres undefined) | inactive: 0.593%
CP(=O)(Oc1ccccc1)N1CCOC1=O (centres undefined) | inactive: -1.85%
Cc1ccc(NP(=O)(Oc2ccccc2)Oc2ccccc2)nc1 | inactive: -0.585%
CCc1ccc(OP(C)(=O)Nc2cccnc2)cc1 (centres undefined) | inactive: 5.5%
O=[N+]([O-])c1cc([N+](=O)[O-])c(CCNc2ccccc2)c([N+](=O)[O-])c1 | inactive: -0.207%
CCc1nc2c(n1)c1c(non1O)c1c2no[n+]1[O-] | inactive: 0.0141%
Nc1cc(N)c2nonc2c1[N+](=O)[O-] | inactive: -0.339%
Cc1c(NP(C)(=O)Oc2ccc(C(C)C)cc2)c(=O)n(-c2ccccc2)n1C (centres undefined) | inactive: -6.89%
O=[N+]([O-])c1cc([N+](=O)[O-])c(Nc2ccccn2)c([N+](=O)[O-])c1 | inactive: 7.52%
CC(C)CC(=O)NC(Sc1ccc(Cl)cc1)C(Cl)(Cl)Cl (centres undefined) | inactive: 0.241%
Oc1ccccc1CNc1ccccn1 | inactive: 2.99%
O=C(NC(Sc1ccncn1)C(Cl)(Cl)Cl)c1ccccc1 (centres undefined) | inactive: -0.403%
CP(=O)(Nc1ccccn1)Oc1ccccc1 (centres undefined) | inactive: 5.1%
COc1ccccc1OP(C)(=O)Nc1ccc(C)cc1C (centres undefined) | inactive: 0.126%
